Experimental data reported in patent publication EP3419977B1, “PLATINUM(II) RING-FUSED CHLORINS, METHODS AND USES THEREOF” (Universidade de Coimbra, priority 2016, dated 2017).
Where two headings read alike, the source gives them in different places. Marks after values point to notes of the source that are not given here.

Experiments:
[1] = in toluene
[2] = Singlet oxygen formation quantum yield; conditions: aerated ethanol solution, phenazine as reference
[3] = Fluorescence quantum yield; conditions: in toluene
[4] = deaerated solution in water, ~4.5 h irradiation
[5] = Luminescence response to O2 concentration (Stern-Volmer analysis); conditions: ratio of intensity 755 nm / 600 nm, pO2 from 0 to 21 %, aqueous micellar system
[6] = isothermal thermogravimetric analysis at 60 °C during 3 h
[7] = O2 saturated solution (3 hours of bubbling with oxygen)
[8] = deaerated (nitrogen saturated) solution
[9] = O2 saturated solution, room temperature

Question: With “platinum (II) 2,3-dihydroxymethyl-4,5,6,7-tetrahydropyrazolo[1,5-α]pyridine-fused chlorin [Chlorin 8]” as the substance, how does the φP [1, 7] read?
Answer: 0.0002^e

Question: And the φP [1, 8]?
Answer: 0.068^d

Question: What about the φP ([1]; presence of O2 (air equilibrated, [O2]= 1.8×10^-3 M)) of the same substance?
Answer: 0.0019^c

Question: What about the “singlet oxygen quantum yield (φΔ)” value [2] of the same substance?
Answer: 0.58

Question: What about the φF [3, 9] of the same substance?
Answer: 0.0001

Question: And the φF ([3]; presence of O2, room temperature)?
Answer: 0.0001^c

Question: And the “phosphorescence intensity at 756 nm” value [4]?
Answer: unchanged

Question: And the “KSV (Stern-Volmer constant)” value [5]?
Answer: 0.18

Question: And the mass loss [6]?
Answer: less than 1%

Question: What about the Phosporescence lifetime (aqueous micellar system (Tween80/DMSO/water (2/2/96, v/v/v)), deaerated solution) of the same substance?
Answer: 30.9^b,d µs

Question: What about the Phosporescence lifetime (aqueous micellar system (Tween80/DMSO/water (2/2/96, v/v/v)), deaerated solution, listed as Pt(II)-chlorin 8) of the same substance?
Answer: 30.9 µs

Question: And the Phosporescence lifetime (aqueous micellar system (Tween80/DMSO/water (2/2/96, v/v/v)), deaerated solution, listed as chlorin 8)?
Answer: 30.9 µs

Question: What about the Phosporescence lifetime (aqueous micellar system (Tween80/DMSO/water (2/2/96, v/v/v)), presence of O2) of the same substance?
Answer: 11.3^b,c µs

Question: What about the Phosporescence lifetime (aqueous micellar system (Tween80/DMSO/water (2/2/96, v/v/v)), presence of O2, listed as Pt(II)-chlorin 8) of the same substance?
Answer: 11.3 µs

Question: What about the Phosporescence lifetime (aqueous micellar system (Tween80/DMSO/water (2/2/96, v/v/v)), presence of O2, listed as chlorin 8) of the same substance?
Answer: 11.3 µs

Question: And the phosphorescence lifetime (dearated ethanol solution (Figure 5B))?
Answer: 9.40 µs

Question: What about the phosphorescence lifetime (ethanol solution, with oxygen (Figure 5A)) of the same substance?
Answer: 865 ns

Question: And the Phosporescence lifetime (in toluene, deaerated solution)?
Answer: 25.7^a,d µs

Question: And the Phosporescence lifetime (in toluene, presence of O2)?
Answer: 0.5^a,c µs

Question: For “platinum (II) dimethyl 4,5,6,7-tetrahydropyrazolo[1,5-α]pyridine-2,3-dicarboxylate-fused chlorin [Chlorin 7b]”, which φP [1, 7] is on record?
Answer: 0.0002

Question: And the φP [1, 8]?
Answer: 0.088^d

Question: And the φP ([1]; deaerated (nitrogen saturated) solution, listed as chlorins 7b)?
Answer: 0.088

Question: What about the φP ([1]; presence of O2 (air equilibrated, [O2]= 1.8×10^-3 M), listed as chlorins 7b) of the same substance?
Answer: 0.0028

Question: And the φF [3, 9]?
Answer: 0.0001^e

Question: What about the φF ([3]; O2 saturated solution, room temperature, listed as chlorin 7b) of the same substance?
Answer: 0.0001

Question: What about the mass loss [6] of the same substance?
Answer: less than 1%

Question: What about the Phosporescence lifetime (in toluene, deaerated solution) of the same substance?
Answer: 26.1^a,d µs

Question: What about the Phosporescence lifetime (in toluene, presence of O2) of the same substance?
Answer: 0.4^a,c µs
